# Binding of CDR-mutated scFvs to a peptide of the spike HR2 region

Target peptide (SARS-CoV-2 spike, HR2 region): PDVDLGDISGINAS

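These sequences belong to a second round, designed from the earlier measurements on random variants of the parent. Several design methods are mixed in this list. AlphaSeq pools MATa yeast showing the antibodies with MATalpha yeast showing the peptide. The frequency of each diploid, read from paired DNA barcodes, reflects how well the two displayed proteins bind. Scores were corrected for input abundance and mapped to Kd with protein pairs of known affinity run in the same pool. The assay was run in six technical replicates.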

The variants keep the heavy chain, the linker and the frameworks of Ab-14 (scFv order VH, three GGGGS repeats, VL).
VH: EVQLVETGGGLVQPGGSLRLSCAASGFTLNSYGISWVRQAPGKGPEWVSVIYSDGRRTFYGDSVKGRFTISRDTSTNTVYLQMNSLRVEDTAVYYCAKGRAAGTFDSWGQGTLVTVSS
VL: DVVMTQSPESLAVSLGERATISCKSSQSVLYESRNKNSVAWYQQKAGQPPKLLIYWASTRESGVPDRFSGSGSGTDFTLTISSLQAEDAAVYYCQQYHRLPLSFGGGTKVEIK

Substitutions are numbered in sequence along the VL above, starting at 1 (not Kabat). This list holds designs with at most six substitutions. The read-out is the apparent dissociation constant on a log10 scale (nM): the lower, the stronger. The mean shown is taken over the replicates in which the pair was detected. A pair that was not seen in any replicate is written "nd"; this usually means weak binding, but a binder can also be missed. Three control strains display no target. For all light chain designs, 4% of the pairings with them gave a signal, with a median of 2.64 and one signal in twenty below 1.59, so weak values seen in few replicates may be background. Also given: how often the same scFv was detected with the empty control strains.

changes,"log10 Kd (nM), mean",replicates with signal,empty controls
S25L/S26M/S28Q/V29T/S62E,1.05,6/6,4/18
S25L/S26L/W56H/S62Q/R99F,-0.20,6/6,2/18
S25L/V29D/W56G/T59Y,-0.20,6/6,0/18
S25L/V29D/W56N/T59Q/E61L,0.08,6/6,5/18
S25L/S28A/L30W/W56E/T59L/S62Q,0.63,6/6,2/18
S25I/V29Q/W56G/P101T,1.83,3/6,0/18
S26M/E61N,2.60,2/6,0/18
S25V/V29W/S38N/W56E,0.39,6/6,0/18
S25I/N35V,0.54,6/6,1/18
V29W/W56N/T59Q/S62Q,-0.01,6/6,1/18
W56E/S103F,2.11,3/6,1/18
V29F/W56G/Q96M/P101T,nd,0/6,0/18
S58I/S62Y,nd,0/6,0/18
Q95Y,nd,0/6,0/18
S25Q/V29D/W56G,-0.03,6/6,0/18
S26D/Q27D/S38G/V39C/W56D/P101G,2.05,5/6,0/18
E32T/E61N,2.63,4/6,0/18
K24F/S25L/S26E/V29T/W56N/E61C,-0.27,6/6,0/18
S25F/Y31T/R34M/K36Q,1.31,5/6,0/18
S25L/L30G/W56E/S62Q,-0.21,6/6,0/18
S25L/V29W/N35M/W56N/T59Q,-0.07,6/6,3/18
Y31V,1.73,6/6,1/18
S25V/V29L/L30G/K36T,1.38,6/6,0/18
V29K/Y31A/R34G,1.91,4/6,0/18
S25C/Y31M/R34P,1.71,5/6,1/18
S25L/Q27N/V29T/N35Q,nd,0/6,0/18
S25V/S26Q/V29W/L30P/W56N/T59Q,2.17,4/6,1/18
Q27I/V29W/R34M/W56N/A57G,0.22,6/6,0/18
S26F/V29W/W56G/S62Q,-0.12,6/6,1/18
S25L/V29Q/S38N/W56N/S62D,0.59,6/6,1/18
L30V/W56E/E61Y/R99C,1.89,1/6,0/18
S25F/E32P/W56T,0.73,6/6,0/18
W56N/E61V,0.66,6/6,0/18
S25L/S26P/W56Q,-0.31,6/6,2/18
S25L/S26P/V29E/W56N/T59E,0.70,6/6,0/18
Y31T/W56K/R99G,2.40,1/6,0/18
K24S/S25L/S28D/V29A/W56N/S62V,-0.08,6/6,1/18
L30P/K36F/S62T/Q95Y/Q96V,nd,0/6,0/18
S25I/K36N/Q96N/R99K/S103Y,2.16,3/6,1/18
S25L/Q95G/L102F,0.42,6/6,0/18
S26V/V29D/S58H/L100A,nd,0/6,0/18
S25I/S26L/W56H/S62D/Q96L,1.16,6/6,2/18
S25L/S26Q/V29W/W56N/T59Q/Q96D,-0.19,6/6,1/18
S25L/S26P/V29E/W56N/S62E,0.40,6/6,0/18
Y31G/W56K/S58D/S103C,1.25,6/6,0/18
S25L/L30M/W56N/S62M,0.35,6/6,0/18
S25V/V29H/K36S/W56N,-0.17,6/6,0/18
S25L/Q27L/W56E,-0.11,6/6,0/18
S25L/V29D/K36I/W56N/T59Q/E61C,-0.15,6/6,2/18
L30D/Y31A/W56D,-0.08,6/6,0/18
Y31P/H98Y,1.18,4/6,0/18
S25V/Y31G/S33Q/W56E,0.25,6/6,4/18
S25L/V29E/N35M/W56N/S62Q,0.25,6/6,0/18
S25L/S26M/V29D/W56E,0.39,6/6,1/18
S25F/S38N/W56G,-0.41,6/6,0/18
S25L/S33M/N35V/W56Q/S58V/E61M,0.42,6/6,0/18
S25L/S26E/V29G/L30N/W56N,0.15,6/6,0/18
K24N/N35R/W56N,2.09,6/6,1/18
S25L/V29F/N35A/W56G/T59Q,-0.47,6/6,0/18
S25L/S26Q/V29W/W56N/S62E,-0.45,6/6,1/18
S25V/V29E/W56N/T59E,-0.42,6/6,0/18
S25L/R34G/N35T/W56N,0.03,6/6,2/18
S25V/S26M/W56E,-0.17,6/6,1/18
S25L/S26P/V29G/W56S,-0.01,6/6,0/18
Q27I/R34T/S62V,1.54,6/6,0/18
K24S/Q27P/S28L/Y31T/K36A,2.14,1/6,1/18
S25F/L30R/N35T/W56N,0.28,6/6,0/18
K36L/S62K,1.90,3/6,0/18

The 6 strongest on average among those seen in every replicate, once more:

changes,"log10 Kd (nM), mean",replicates with signal,empty controls
S25L/V29F/N35A/W56G/T59Q,-0.47,6/6,0/18
S25L/S26Q/V29W/W56N/S62E,-0.45,6/6,1/18
S25V/V29E/W56N/T59E,-0.42,6/6,0/18
S25F/S38N/W56G,-0.41,6/6,0/18
S25L/S26P/W56Q,-0.31,6/6,2/18
K24F/S25L/S26E/V29T/W56N/E61C,-0.27,6/6,0/18

Values of this round are not directly comparable with the first-round values of the same sequences. Of ten entries with the parent sequence, four were seen in most replicates (averages 0.34 to 2.37), three in one and three in none, so single entries are noisy. The authors averaged sequences with at least three values out of six and counted those with two or fewer as poor binders.

Reference: Li et al. 2023, doi:10.1038/s41467-023-39022-2. File: FLAb, binding data.